Only a part is listed here, and it is no random draw.

As usually defined, the inhibition is the relative decrease from the control value, in per cent.

The target in this assay is T1, Protein deacetylase HDAC6 (Homo sapiens) (UniProt Q9UBN7).
T1 sequence (whole entry): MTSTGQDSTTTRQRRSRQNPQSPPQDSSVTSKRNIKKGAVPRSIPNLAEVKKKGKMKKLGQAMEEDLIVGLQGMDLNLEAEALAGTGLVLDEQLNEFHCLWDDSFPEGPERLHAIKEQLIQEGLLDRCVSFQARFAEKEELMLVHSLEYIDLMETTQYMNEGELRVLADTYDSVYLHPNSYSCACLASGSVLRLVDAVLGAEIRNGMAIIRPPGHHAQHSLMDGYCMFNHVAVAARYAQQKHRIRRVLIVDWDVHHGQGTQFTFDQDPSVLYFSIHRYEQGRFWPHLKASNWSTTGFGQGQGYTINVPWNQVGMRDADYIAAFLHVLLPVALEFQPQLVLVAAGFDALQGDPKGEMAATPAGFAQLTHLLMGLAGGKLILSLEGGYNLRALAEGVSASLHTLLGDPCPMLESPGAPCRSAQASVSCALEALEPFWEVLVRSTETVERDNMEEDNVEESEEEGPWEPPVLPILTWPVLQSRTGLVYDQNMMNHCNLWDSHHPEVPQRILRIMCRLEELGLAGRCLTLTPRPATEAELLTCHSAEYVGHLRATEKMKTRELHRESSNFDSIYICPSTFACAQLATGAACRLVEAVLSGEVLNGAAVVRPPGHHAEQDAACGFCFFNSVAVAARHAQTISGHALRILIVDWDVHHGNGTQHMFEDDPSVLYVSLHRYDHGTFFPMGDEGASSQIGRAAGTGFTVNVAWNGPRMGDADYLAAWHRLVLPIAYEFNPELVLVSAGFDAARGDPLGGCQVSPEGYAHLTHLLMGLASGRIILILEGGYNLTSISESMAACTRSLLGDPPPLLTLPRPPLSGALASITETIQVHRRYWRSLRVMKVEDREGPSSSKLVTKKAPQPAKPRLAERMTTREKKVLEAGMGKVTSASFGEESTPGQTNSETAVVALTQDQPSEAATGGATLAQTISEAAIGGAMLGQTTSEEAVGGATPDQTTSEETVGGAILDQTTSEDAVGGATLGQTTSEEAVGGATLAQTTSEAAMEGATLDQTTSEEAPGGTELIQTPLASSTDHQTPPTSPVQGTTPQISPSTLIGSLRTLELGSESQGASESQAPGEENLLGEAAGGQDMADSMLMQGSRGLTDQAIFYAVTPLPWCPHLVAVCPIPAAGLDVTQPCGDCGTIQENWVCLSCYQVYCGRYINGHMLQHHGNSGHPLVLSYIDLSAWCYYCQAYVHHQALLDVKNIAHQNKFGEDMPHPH
The settings on record: at 10 µM.
On to `CN(C(=O)Cc1ccc(Cl)c(Cl)c1)C1CCC2(CCCO2)CC1N1CCCC1` (stereo unspecified), for which the inhibition was -5.69%.
Take `O=C(OC1CN2CCC1CC2)c1ccccc1` (stereo unspecified): the inhibition was -1.86%.
Next, `N[C@@H](Cc1ccc([N+]([O-])(CCCl)CCCl)cc1)C(=O)O`: -6.73%; `CN(C)[C@]1(c2ccccc2)CC[C@]2(CC1)OCCc1c3cc(F)ccc3[nH]c12`: 0%; `CN(C(=O)Cc1ccc(Cl)c(Cl)c1)[C@H]1CCCC[C@@H]1N1CCCC1`: -2.05%.
Next, `O=P(O)(O)F`: -6.79%.

The record behind these values is ChEMBL document CHEMBL4808148, “HDAC6 screening dataset using tau-based substrate in an enzymatic assay yields selective inhibitors and activators” (2021).
